Laboratory results taken from PubChem BioAssay AID1032 (The Scripps Research Institute Molecular Screening Center, 2008).
This is a selection; strong and weak results do not stand in their true shares. Some results for these compounds are left out of this collection, so the calls shown say nothing about other tests. Active and inactive are the calls of the source. Rule as the data show it: active = activation above about 22%; inactive = the rest.

The chains behind the UniProt entries cited, without tags or fusion partners. Residues count along the entry.
UniProt P37231, 232-505 limits assumed: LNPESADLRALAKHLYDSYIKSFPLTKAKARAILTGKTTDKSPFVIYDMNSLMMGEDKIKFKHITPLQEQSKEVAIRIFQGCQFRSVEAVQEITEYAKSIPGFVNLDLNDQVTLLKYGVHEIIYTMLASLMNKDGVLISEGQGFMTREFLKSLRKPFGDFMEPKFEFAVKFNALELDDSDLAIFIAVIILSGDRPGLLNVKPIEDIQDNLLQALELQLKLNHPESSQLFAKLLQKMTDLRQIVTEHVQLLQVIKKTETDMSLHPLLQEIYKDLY
UniProt Q15596, whole entry partner: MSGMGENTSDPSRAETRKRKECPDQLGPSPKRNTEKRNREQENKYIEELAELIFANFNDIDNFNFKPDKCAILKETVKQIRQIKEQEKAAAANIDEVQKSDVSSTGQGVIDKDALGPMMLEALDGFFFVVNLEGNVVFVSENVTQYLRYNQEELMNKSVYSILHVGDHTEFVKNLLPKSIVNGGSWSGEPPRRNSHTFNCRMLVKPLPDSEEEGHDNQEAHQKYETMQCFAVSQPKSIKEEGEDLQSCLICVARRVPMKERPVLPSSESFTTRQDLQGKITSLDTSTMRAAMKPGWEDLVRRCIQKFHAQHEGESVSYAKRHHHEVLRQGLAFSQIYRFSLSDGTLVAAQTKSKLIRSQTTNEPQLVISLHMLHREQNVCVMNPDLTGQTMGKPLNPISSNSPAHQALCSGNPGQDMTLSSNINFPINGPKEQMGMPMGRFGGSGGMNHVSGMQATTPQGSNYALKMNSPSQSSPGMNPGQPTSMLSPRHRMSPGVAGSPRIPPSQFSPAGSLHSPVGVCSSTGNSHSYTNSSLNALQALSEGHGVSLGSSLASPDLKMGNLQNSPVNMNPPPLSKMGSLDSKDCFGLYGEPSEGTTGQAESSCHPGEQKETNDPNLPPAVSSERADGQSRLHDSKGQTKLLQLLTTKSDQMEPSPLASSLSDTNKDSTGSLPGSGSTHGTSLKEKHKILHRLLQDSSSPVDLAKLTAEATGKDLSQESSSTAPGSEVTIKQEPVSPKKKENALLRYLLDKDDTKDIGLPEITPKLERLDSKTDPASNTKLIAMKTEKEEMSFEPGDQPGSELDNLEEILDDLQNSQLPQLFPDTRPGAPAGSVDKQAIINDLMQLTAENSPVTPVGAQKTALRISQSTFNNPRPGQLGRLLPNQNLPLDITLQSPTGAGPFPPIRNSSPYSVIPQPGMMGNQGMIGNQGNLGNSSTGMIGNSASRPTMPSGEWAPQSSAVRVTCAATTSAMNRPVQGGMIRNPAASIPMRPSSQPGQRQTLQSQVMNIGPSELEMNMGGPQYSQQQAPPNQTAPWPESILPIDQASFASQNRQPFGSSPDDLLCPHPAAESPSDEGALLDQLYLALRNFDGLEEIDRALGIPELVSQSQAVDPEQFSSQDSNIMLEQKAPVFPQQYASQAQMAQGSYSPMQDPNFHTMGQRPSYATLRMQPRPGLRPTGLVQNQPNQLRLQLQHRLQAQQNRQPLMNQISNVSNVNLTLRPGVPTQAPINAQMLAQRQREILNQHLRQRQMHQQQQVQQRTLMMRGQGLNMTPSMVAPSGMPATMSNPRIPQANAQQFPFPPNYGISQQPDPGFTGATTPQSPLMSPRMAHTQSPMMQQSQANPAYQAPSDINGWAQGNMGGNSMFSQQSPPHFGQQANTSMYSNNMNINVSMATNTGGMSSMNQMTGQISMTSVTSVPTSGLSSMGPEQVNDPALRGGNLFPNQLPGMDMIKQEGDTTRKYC

What follows are compounds tested against Peroxisome proliferator-activated receptor gamma (Homo sapiens) (UniProt P37231) (assay: agonists of PPARg-SRC-2 recruitment, primary screen, biochemical, HTS (AID 1032;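 also: 0% = vehicle and 100% = reference agonist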)). Settings: PPARgamma LBD-SRC-2 recruitment, at 8 µM, active compounds read high.

Structure (SMILES) | activation
C=CCN1CCN(CCOC(=O)C(O)(c2ccccc2)c2ccccc2)CC1 | inactive: 3.32%
CCN1CCCC(OC(=O)C2(O)c3ccccc3C=Cc3ccccc32)C1 (centres undefined) | inactive: 1.8%
Cc1ccccc1C(=O)NCC1(N2CCCCC2)CCCCC1 | inactive: 7.16%
CN(C)C1CCCC1OC(=O)C(O)(c1ccccc1)c1ccccc1 (centres undefined) | inactive: -1.12%
CC(C)N1C(=O)CC2(CCN(CCOC(=O)C(O)(c3ccccc3)c3ccccc3)CC2)C1=O | inactive: -4.42%
O=C(NCC1(N2CCCCC2)CCCCC1)c1cc([N+](=O)[O-])ccc1Cl | inactive: 3.05%
CN(C)c1cccc(C(=O)NCC2(N(C)C)CCCCC2)c1 | inactive: 4.5%
O=C(OC1CN2CCC1CC2)C(CO)(c1ccccc1)c1ccccc1 (centres undefined) | inactive: 8.46%
COc1cccc(C(=O)NCC2(N3CCCCC3)CCCCC2)c1 | inactive: -6.41%
